Assay results reported in PubChem BioAssay AID483 (Columbia University Molecular Screening Center, 2006).
The entries are a selection whose mix differs from that of the whole data set. The source made the active and inactive calls.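 Rule for the calls: active = visual image review flags a hit and inhibition of aggregation exceeds 20%; inconclusive = visual hit but inhibition at or below 20%; inactive = no hit on visual image review.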

Test: reduction of polyQ htt aggregates in cells – imaging, exon1htt(103Q)mCFP cells, high-content imaging, primary screen (AID 483);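 note: compound exposure lasted 3 days before fixation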
Details: exon1htt(103Q)mCFP cell line, aggregate imaging; at 2 µM; hits give high values

| Structure (SMILES) | inhibition of aggregation |
| --- | --- |
| Fc1ccccc1NC1CCN(Cc2ccccc2)CC1 | inactive: 11.3% |
